Test results: PubChem BioAssay AID743247 (Broad Institute, 2014)
The list shows a part of the results, in another mix than the full data. Activity calls are given as the source filed them.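 How the source made its calls: active means mean inhibition across replicates of 30% or more, regardless of how many single replicates reach that level; inconclusive means mean under 30% yet at least half of replicates reach 30%; inactive means the rest.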

Test: blockers of fibronectin fibrillogenesis by fibroblasts – AH1F cells, Alexa488-fibronectin fluorescence, plate reader, primary screen (AID 743247);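 further: positive control wells lacked labelled fibronectin entirely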
Conditions: Alexa488-fibronectin deposition fluorescence, overnight, at 12.6 µM, active compounds read high
Method in brief: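 material = AH1F fibroblast monolayer depositing Alexa488-labelled fibronectin into matrix | amount = 10000 AH1F cells/well | buffer or medium = DMEM plus 2% serum, read in PBS | incubation = 1 h cell adhesion before compound, then overnight fibronectin incubation | detection = fluorescence at 485 nm excitation, 525 nm emission | evaluation = percent inhibition as loss of matrix-bound fibronectin fluorescence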

SMILES | inhibition
CCCCn1nnnc1C(c1cccc(OC)c1OC)N1CCC(n2c(=O)[nH]c3ccccc32)CC1 (stereo unspecified) | inactive: 11.6%
O=c1[nH]c2ccccc2n1C1CCN(C(c2cccs2)c2nnnn2C2CCCC2)CC1 (stereo unspecified) | inactive: -2.94%
O=C(OC1CN2CCC1CC2)C1c2ccccc2C=Cc2ccccc21 (stereo unspecified) | inactive: -3.28%
COc1cccc(C(c2nnnn2C(C)(C)C)N2CCC(n3c(=O)[nH]c4ccccc43)CC2)c1OC (stereo unspecified) | inactive: 0.997%
CCOC(=O)N1CCC(Nc2ccc(C)cc2)CC1 | inactive: -4%
CCCOc1ccc(C(=O)NCC2(N(C)C)CCCCC2)cc1 | inactive: 0.839%
O=C(O)C1(Nc2ccccc2)CCN(Cc2ccccc2)CC1 | inactive: 8.94%
NN(c1ccccc1)C1CCN(CCc2ccccc2)CC1 | inactive: -7.52%
CC(C)(C)OC(=O)N1CCC(Nc2ccccc2)CC1 | inactive: 5.37%
CN1CCC(Nc2ccc(F)c(Cl)c2)CC1 | inactive: -1.66%
CCOc1ncccc1C(=O)NCC1(N2CCOCC2)CCCCC1 | inactive: -7.93%
CN1CCC(Nc2ccc(Cl)cc2)CC1 | inactive: 2.66%
COc1cc(OC)cc(C(=O)NCC2(N3CCOCC3)CCCCC2)c1 | inactive: -0.873%
COc1cccc(C(c2nnnn2C2CCCC2)N2CCC(n3c(=O)[nH]c4ccccc43)CC2)c1OC (stereo unspecified) | inactive: -2.79%
COc1cccc(C(=O)N(c2cc(C)cc(C)c2)C2CCN(C(=O)OC(C)(C)C)CC2)c1 | inactive: -4.48%
Cc1ccc(NC2(C#N)CCN(Cc3ccccc3)CC2)cc1 | inactive: -5.86%
Cc1ccc(C(=O)NCC2(N3CCCCC3)CCCCC2)o1 | inactive: 0.469%
COc1cc(OC)cc(C(=O)NCC2(N3CCCCC3)CCCCC2)c1 | inactive: 6.38%
CCC(c1nnnn1C1CCCCC1)N1CCC(n2c(=O)[nH]c3ccccc32)CC1 (stereo unspecified) | inactive: 0.333%
CC(=O)N(c1ccccc1)C1CCNCC1 | inactive: 6.29%
COc1cccc(C(c2nnnn2C2CCCCC2)N2CCC(n3c(=O)[nH]c4ccccc43)CC2)c1OC (stereo unspecified) | inactive: -0.405%
Cn1c(=O)[nH]cc(N(CCCl)CCCl)c1=O | inactive: 5.13%
O=C(NCC1(N2CCCCC2)CCCCC1)c1ccco1 | inactive: -5.29%
COc1ccc(C(c2nnnn2C2CCCCC2)N2CCC(n3c(=O)[nH]c4ccccc43)CC2)cc1 (stereo unspecified) | inactive: -1.18%
CCN1CCC(Nc2cccc(F)c2)CC1 | inactive: 3.32%
Cc1ccccc1NC1(C#N)CCN(Cc2ccccc2)CC1 | inactive: -3.44%
